Conditions: mouse, in vivo

SMILES: CCCCCCc1cc(=O)c(Oc2ccccc2C)cn1C [PT166]
- AUC0-24h, fold higher than PT04: 5 fold
- Cmax, fold higher than PT04: 9 fold

Reference: patent publication US10071965B2, “Pyridone FabI inhibitors and uses thereof” (priority 2015, dated 2018)
